Test system: HepG2 (liver) cells
Assay: MTT antiproliferative assay, HepG2 cells
Assay type: cell-based, human
Conditions: normal cells (HUVEC) versus HepG2 IC50
Procedure: Compounds L^1−L^10 were evaluated against human cancer cell lines Hela, HepG2, MCF-7, A549, and the normal cell HUVEC with the antiproliferative activities in vitro by MTT assay, and results are summarized as IC50 values in Table 3.
Hela, HepG2, MCF-7, A549, and HUVEC cells were used in the antiproliferative activity assay. Cancer cells were seeded in 96-well plates with a density of 10^4 cells per well, after 12 hours of incubation at 5% CO2 and 37 °C, the culture media was removed and cells were incubated with L^1−L^10 dissolved in DMEM at different concentrations (each concentration repeated 3 times) for 36 h at 5% CO2 and 37 °C. Subsequently, removed the culture media and the new culture medium containing MTT (1 mg/mL) was added, followed by incubating for 4 h to allow the formation of formazan dye (Xia et al., [2015]; Zhao et al., [2018]). After removing the medium, 200 μL DMSO was added to each well to dissolve the formazan crystals. Absorbance was measured at 595 nm in a microplate photometer. Cell viability values were determined (at least three times) according to the following formulae: cell viability (%) = the absorbance of experimental group/the absorbance of blank control group ×100%.

COc1cccc2c1C(=O)c1c(O)c3c(c(O)c1C2=O)C[C@@](O)(C(=O)CO)C[C@@H]3O[C@H]1C[C@H](N)[C@H](O)[C@H](C)O1 [DOX, Doxorubicin, reference compound]
security index (SI): 3.7

Source: PMC7034089, “Synthesis of novel, DNA binding heterocyclic dehydroabietylamine derivatives as potential antiproliferative and apoptosis-inducing agents” (Drug Delivery, 2020)
